Biological target: 5-hydroxytryptamine receptor 2B (Homo sapiens, UniProt P41595)
Assay: Agonist activity at 5HT2B receptor relative to control
Type: functional

By UniProt entry, the sequences of proteins in these tests, tags left out.
UniProt P41595, whole entry: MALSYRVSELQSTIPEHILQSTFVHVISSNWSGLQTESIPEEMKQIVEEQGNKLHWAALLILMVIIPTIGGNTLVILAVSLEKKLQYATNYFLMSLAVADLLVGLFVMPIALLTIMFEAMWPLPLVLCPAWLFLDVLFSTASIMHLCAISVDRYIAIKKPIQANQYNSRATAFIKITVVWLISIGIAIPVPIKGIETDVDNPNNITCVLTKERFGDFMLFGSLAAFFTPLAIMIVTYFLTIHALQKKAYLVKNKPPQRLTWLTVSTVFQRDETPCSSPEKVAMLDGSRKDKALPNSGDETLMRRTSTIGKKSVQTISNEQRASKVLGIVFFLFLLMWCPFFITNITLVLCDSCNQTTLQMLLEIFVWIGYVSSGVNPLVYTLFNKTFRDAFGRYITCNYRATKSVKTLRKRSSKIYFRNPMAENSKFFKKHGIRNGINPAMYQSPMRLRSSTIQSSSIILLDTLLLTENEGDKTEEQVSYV

- Activity: 20%
SMILES: COc1cc(OCC2CCCCC2)c(F)cc1CNC(=O)[C@@H]1CCCN1
